Data on 37 substances can be found in patent US20240360179A1, “STAPLED PEPTIDES AND METHODS THEREOF” (FOG PHARMACEUTICALS, INC., priority 2021, published 2024).

Amino acid sequences for entries named in this document (tags omitted).
UniProt P35222, whole entry: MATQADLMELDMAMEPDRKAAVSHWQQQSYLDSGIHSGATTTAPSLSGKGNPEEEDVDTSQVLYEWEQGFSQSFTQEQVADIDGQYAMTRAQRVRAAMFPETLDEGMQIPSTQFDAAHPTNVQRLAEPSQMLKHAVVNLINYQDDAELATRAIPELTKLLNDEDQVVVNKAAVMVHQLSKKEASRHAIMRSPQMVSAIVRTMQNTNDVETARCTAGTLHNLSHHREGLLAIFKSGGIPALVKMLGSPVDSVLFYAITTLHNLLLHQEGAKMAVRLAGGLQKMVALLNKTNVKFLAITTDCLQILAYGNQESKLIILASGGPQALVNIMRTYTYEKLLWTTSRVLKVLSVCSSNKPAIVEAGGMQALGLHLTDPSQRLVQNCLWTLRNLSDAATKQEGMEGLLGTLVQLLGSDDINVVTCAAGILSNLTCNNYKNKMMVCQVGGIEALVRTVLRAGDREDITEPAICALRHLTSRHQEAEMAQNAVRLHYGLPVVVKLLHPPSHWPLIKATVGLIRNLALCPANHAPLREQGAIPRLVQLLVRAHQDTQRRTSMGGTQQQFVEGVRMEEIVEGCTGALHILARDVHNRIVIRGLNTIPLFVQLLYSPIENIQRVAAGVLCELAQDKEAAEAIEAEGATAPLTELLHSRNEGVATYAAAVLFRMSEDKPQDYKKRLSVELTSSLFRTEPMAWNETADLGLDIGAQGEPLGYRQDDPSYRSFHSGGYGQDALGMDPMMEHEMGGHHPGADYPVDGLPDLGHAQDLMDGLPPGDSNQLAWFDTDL

For test [1], the target named is T1, full-length B-Catenin (Uniprot ID P35222) (Homo sapiens, UniProt P35222).
T1 construct: 10 nM full-length B-Catenin (Uniprot ID P35222)
The test is classed as binding. The following applies: competition fluorescence polarization; read-out: beta-Catenin FP IC50.

In test [2] the target is beta-catenin/TCF4 interaction (Homo sapiens, UniProt P35222). The test is classed as cell-based. The following applies: read-out: NanoBRET Abs IC50. More on the design: host or cells: HEK293.

Read-outs that look alike come from different tables or passages of the source. Where only a bound is given, the exact number is not on record here.

Take “Ac-PL3-Asp-Npg-B5-Asp-3COOHF-Aib-Ala-Phe-Lys*3-PyrS2-HexG-34ClF-GlnR*3-Ala-NH2 [I-942]”: the IC50 in test [1] was under 0.05 µM; in test [2], over 10 µM.
Take “Ac-PL3-Asp-Npg-B5-Asp-3COOHF-Phe-Ala-Phe-Lys*3-PyrS2-2Thi-34ClF-GlnR*3-Ala-NH2 [I-919]”: the figures for the IC50 in test [1] and in test [2] were under 0.05 µM and 3 to 10 µM, respectively.
The like results for “Ac-PL3-Asp-Ile-B5-Asp-Me2Gln-Aib-Ala-Phe-Lys*3-PyrS2-Phe-34ClF-GlnR*3-Ala-NH2 [I-1786]” were, in that order, under 0.05 µM and 3 to 10 µM.
The corresponding values for “Ac-PL3-Asp-Npg-B5-Asp-3COOHF-Aib-Ala-Phe-Lys*3-PyrS2-Phe-34ClF-GlnR*3-NH2 [I-871]” are under 0.05 µM and under 1.5 µM.
The like results for “Ts-PL3-Asp-Npg-B5-Asp-3COOHF-Aib-Ala-Phe-Lys*3-PyrS2-3Thi-BztA-GlnR*3-Ala-NH2 [I-755]” were, in that order, under 0.05 µM and 3 to 10 µM.
Regarding “Ac-PL3-Asp-Npg-B5-Asp-3COOHF-Aib-Ala-Phe-Lys*3-PyrS2-Abu-BztA-GlnR*3-Ala-NH2 [I-269]”, the half-inhibitory concentration (IC50) in test [1] is 0.05 to 0.2 µM; in test [2], over 10 µM.
As to “Ac-PL3-Asp-Npg-B5-Asp-TfeGA-Aib-Ala-Phe-Lys*3-PyrS2-2F3MeF-34ClF-GlnR*3-NH2 [I-891]”, in test [2], the IC50 was 3 to 10 µM.
Take “MeSO2-PL3-Asp-Npg-B5-Asp-3COOHF-Aib-Ala-Phe-Lys*3-PyrS2-3Thi-BztA-GlnR*3-Ala-NH2 [I-754]”: the IC50 in test [1] was under 0.05 µM; in test [2], 3 to 10 µM.
Regarding “Ac-PL3-Asp-Npg-B5-Asp-3COOHF-Aib-Ala-Phe-Lys*3-PyrS2-hnLeu-RbMe2NapA-GlnR*3-Ala-NH2 [I-770]”, in test [2], the half-inhibitory concentration (IC50) was 3 to 10 µM.
“Ac-PL3-Asp-Npg-B5-Asp-3COOHF-Aib-Ala-Phe-dDab*3-PyrS2-3Thi-BztA-GlnR*3-Ala-Ala-Ala-Ala-Ala-NH2 [I-790]”: the IC50 in test [1] is under 0.05 µM; in test [2], 3 to 10 µM.
As to “Ac-PL3-Asp-Cha-B5-Asp-3COOHF-CyhLeu-Ala-Phe-Lys*3-PyrS2-3Thi-BztA-GlnR*3-Ala-NH2 [I-852]”, the IC50 in test [1] is under 0.05 µM; in test [2], 1.5 to 3 µM.
With “Ac-PL3-Asp-Npg-B5-Asp-3COOHF-Phe-Ser-Phe-Lys*3-PyrS2-3Thi-BztA-GlnR*3-Ala-NH2 [I-1012]”, the IC50 in test [1] is under 0.05 µM; in test [2] it was 1.5 to 3 µM.
The corresponding values for “15PyraPy-PL3-Asp-Npg-B5-Asp-3COOHF-Aib-Ala-Phe-Lys*3-PyrS2-3Thi-BztA-GlnR*3-Ala-NH2 [I-904]” are under 0.05 µM and 3 to 10 µM.
On to “Ac-PL3-Asp-Npg-B5-Asp-3COOHF-CyLeu-Gly-Phe-Lys*3-PyrS2-3Thi-BztA-GlnR*3-Ala-NH2 [I-1014]”, for which the IC50 in test [1] is under 0.05 µM; in test [2] it was 3 to 10 µM.
As to “Ac-PL3-Asp-Npg-B5-Asp-3COOHF-Aib-Ala-Phe-Lys*3-PyrS2-3Thi-BztA-GlnR*3-Leu-Asp-Leu-NH2 [I-503]”, the IC50 in test [1] was under 0.05 µM; in test [2] (absolute IC50), 3 to 10 µM.
Take “Ac-PL3-Asp-Npg-B5-Asp-TfeGA-Phe-Ala-Phe-Lys*3-PyrS2-Phe-BztA-GlnR*3-NH2 [I-900]”: the IC50 is under 0.05 µM in test [1] and over 10 µM in test [2].
In the case of “Ac-PL3-Asp-Npg-B5-Asp-3COOHF-Val-Gly-Phe-Lys*3-PyrS2-3Thi-BztA-GlnR*3-Ala-NH2 [I-1016]”, the IC50 in test [1] was under 0.05 µM; in test [2], over 10 µM.
The corresponding values for “Ac-PL3-Asp-Npg-B5-Asp-3COOHF-Ala-Ala-Phe-Leu-[SBut][CH2CH2CH2NH]Dap-3thi-BztA-Ala-GlnR-NH2 [I-1216]” are 0.05 to 0.2 µM and over 10 µM.
Turning to “Ac-PL3-Asp-Npg-B5-Asp-3COOHF-Aib-Ala-Phe-Lys*3-PyrS2-3Thi-BztA-GlnR*3-Leu-Glu-Leu-NH2 [I-505]”, the IC50 in test [1] was under 0.05 µM; in test [2] (absolute IC50), 3 to 10 µM.
For “3IAPAc-PL3-Asp-Npg-B5-Asp-3COOHF-Aib-Ala-Phe-Lys*3-PyrS2-3Thi-BztA-GlnR*3-Ala-NH2 [I-1076]”, the IC50 in test [1] is under 0.05 µM; in test [2], over 10 µM.
The corresponding values for “Ac-PL3-Asp-nLeu-B5-Asp-3COOHF-Cbg-Ala-Phe-Lys*3-PyrS2-3Thi-BztA-GlnR*3-Ala-NH2 [I-861]” are under 0.05 µM and 3 to 10 µM.
For “Ac-PL3-Asp-Npg-B5-Asp-3COOHF-Aib-Ala-Phe-Lys*3-PyrS2-3Thi-BztA-GlnR*3-Tyr-NH2 [I-727]”, the half-maximal inhibitory concentration (IC50) in test [1] was under 0.05 µM; in test [2], 1.5 to 3 µM.
For the substance “Ac-PL3-Asp-Npg-B5-Asp-3COOHF-Aib-Gln-Phe-Lys*3-PyrS2-3Thi-BztA-GlnR*3-Ala-NH2 [I-452]”, the IC50 was under 0.05 µM in test [1] and over 10 µM in test [2] (absolute IC50).
For the substance “Ac-PL3-Asp-DipA-B5-Asp-3COOHF-Aib-Ala-Phe-Lys*3-PyrS2-3Thi-BztA-GlnR*3-Ala-NH2 [I-708]”, the IC50 in test [1] is under 0.05 µM; in test [2] it was 1.5 to 3 µM.
The corresponding values for “Ac-PL3-Asp-Ile-B5-Asp-3COOHF-Aic-Ala-Phe-Lys*3-PyrS2-3Thi-BztA-GlnR*3-Ala-NH2 [I-843]” are under 0.05 µM and 1.5 to 3 µM.
Turning to “Ac-PL3-Asp-Npg-B5-Asp-3COOHF-Aib-Ala-Phe-Lys*3-PyrS2-3Thi-BztA-GlnR*3-Ala-Ala-Ala-Ala-Ala-NH2 [I-783]”, the IC50 was under 0.05 µM in test [1] and 3 to 10 µM in test [2].
For the substance “Ac-PL3-Asp-Cba-B5-Asp-3COOHF-Aic-Ala-Phe-Lys*3-PyrS2-3Thi-BztA-GlnR*3-Ala-NH2 [I-847]”, the IC50 in test [1] was under 0.05 µM; in test [2], 3 to 10 µM.
Regarding “Ac-PL3-Asp-Npg-B5-3COOHF-Asp-Aib-Ala-Phe-Lys*3-PyrS2-3Thi-BztA-GlnR*3-Ala-NH2 [I-742]”, the IC50 was over 1 µM in test [1] and over 10 µM in test [2].
Take “Ac-PL3-Asp-Npg-B5-Asp-3COOHF-Aib-Val-Phe-Lys*3-PyrS2-3Thi-BztA-GlnR*3-Ala-NH2 [I-448]”: the IC50 is under 0.05 µM in test [1] and over 10 µM in test [2] (absolute IC50).
Regarding “Ac-PL3-Asp-Ile-B5-Asp-3COOHF-Val-Ala-Phe-Lys*3-PyrS2-3Thi-BztA-GlnR*3-Ala-NH2 [I-971]”, the IC50 is under 0.05 µM in test [1] and 1.5 to 3 µM in test [2].
As to “Ac-PL3-Asp-Npg-B5-Asp-3COOHF-Aib-Ala_D3-Phe-Lys*3-PyrS2-3Thi-BztA-GlnR*3-Ala D3-NH2 [I-803]”, the values for the 50% inhibitory concentration (IC50) in test [1] and in test [2] were under 0.05 µM and under 1.5 µM, respectively.
In the case of “Ac-PL3-Asp-Npg-B5-Asp-3COOHF-Aib-Ala-Phe-Lys*3-PyrS2-hnLeu-34MeF-GlnR*3-Ala-NH2 [I-764]”, the IC50 in test [2] is 3 to 10 µM.
For “Ac-PL3-Asp-Npg-B5-Asp-3COOHF-Aib-Ala-Phe-Lys*3-PyrS2-hnLeu-34ClF-GlnR*3-Ala-NH2 [I-762]”, in test [2], the IC50 was in the range of 3 to 10 µM.
On the same count and under the same terms, the value for “Ac-PL3-Asp-R5-S5-Asp-3COOHF-Aib-Ala-Phe-PyrS2-Lys*3-3Thi-BztA-Ala-GlnR*3-NH2 [I-1485]” was over 10 µM.
The same measure, in the same setting: the value for “Ac-PL3-Asp-Npg-B5-Asp-3COOHF-Ala-Ala-Phe-Lys*3-PyrS2-2F3MeF-34ClF-GlnR*3-Val-NH2 [I-825]” was 3 to 10 µM.
Turning to “Ac-PL3-Asp-Npg-B5-Asp-3COOHF-Aib-Ala-Phe-[pXyl]hCys-PyrS2-3Thi-BztA-Cys-Ala-NH2 [I-757]”, the IC50 in test [1] is under 0.05 µM.
Still for that read-out and setting: next, “Ac-PL3-Asp-Ile-B5-Asp-3COOHF-Aib-Ala-Phe-Orn*3-PyrS2-Phe-34ClF-dGlnR*3-NH2 [I-1779]”: under 0.05 µM.
